Target: human A3AR (Homo sapiens, UniProt P0DMS8)
Experiment: Inhibition of forskolin-stimulated cAMP production in A3AR-expressing CHO cells
Type: cell-based
Details: inhibition of forskolin-stimulated cAMP at 10 μM, NECA as reference standard

Amino acid sequences for entries named in this document (tags omitted).
UniProt P0DMS8, whole entry: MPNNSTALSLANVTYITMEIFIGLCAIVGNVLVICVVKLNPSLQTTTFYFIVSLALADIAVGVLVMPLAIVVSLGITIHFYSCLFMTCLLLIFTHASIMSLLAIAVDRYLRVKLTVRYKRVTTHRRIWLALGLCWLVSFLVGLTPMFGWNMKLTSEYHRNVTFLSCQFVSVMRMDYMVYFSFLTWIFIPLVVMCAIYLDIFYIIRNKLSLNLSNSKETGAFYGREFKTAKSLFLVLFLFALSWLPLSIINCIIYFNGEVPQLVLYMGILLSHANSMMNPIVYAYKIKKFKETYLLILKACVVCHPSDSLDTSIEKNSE

2-chloro-N^6-(3-iodobenzyl)-5′-N-methylcarboxamidoadenosine [Cl-IB-MECA, reference compound]
A3AR agonist efficacy (in words): full agonists

— article PMC2818678 (Bioorganic & medicinal chemistry, 2009)
